{
  "source": "patent US20210361767A1",
  "about": "“RESCUING CANCER PATIENTS FROM RESISTANCE TO TREATMENT WITH INHIBITORS OF PD-1/PD-L1 INTERACTIONS” (Mayo Foundation for Medical Education and Research, priority 2018, published 2021)",
  "test_system": "CD8+ T cells",
  "assay": "CD8+ T cell survival with recombinant PD-L1 (trypan blue)",
  "format": "cell-based, human",
  "conditions": "for CD8+ T cell survival: trypan blue, n=3, FIG. 5A; for cell death of CD8+ T cells: 24 hours",
  "procedure": "To determine whether sPD-L1 affects antitumor immunity, CD8+ T cells were isolated from healthy volunteers (see, Frigola et al., Clin Cancer Res, 1(177):1915-1923, 2011, for basic experimental protocols) and cultured with PBS or increasing concentrations of recombinant PD-L1. Survival was measured by trypan blue staining (FIG. 5A).\nKarpas-299 lymphoma cells producing sB7-H1 were cultured with an array of protease inhibitors. Supernatants from these cultures were isolated and analyzed for sB7H1 concentration by ELISA. Subsequently, activated human CD8+ T cells were cultured with recombinant sB7H1 protein and cell survival was measured at 24 hours. CD8+ T cells also were cultured with sB7H1-rich tumor cell line supernatants versus sB7H1-depleted supernatants over 48 hours in the presence of placebo, low dose (10 nM), or high dose (1 μM) anti-PD-1 antibody pembrolizumab, and cell survival was measured.",
  "data": [
    {"substance": "recombinant PD-L1: recombinant soluble PD-L1 (sB7-H1) protein added to CD8+ T cell cultures", "values": [
      {"measurement": "CD8+ T cell survival", "setting": "5 μg/ml recombinant PD-L1 vs PBS, p<0.0001", "value": "significantly reduced"},
      {"measurement": "CD8+ T cell survival", "setting": "10 μg/ml recombinant PD-L1 vs PBS, p<0.001", "value": "significantly reduced"},
      {"measurement": "cell death of CD8+ T cells", "setting": "Example 3, exogenous sB7H1 at 5 μg/ml, p<0.0001", "value": "induced cell death"},
      {"measurement": "cell death of CD8+ T cells", "setting": "Example 3, exogenous sB7H1 at 10 μg/ml, p<0.0001", "value": "induced cell death"}
    ]}
  ]
}
